Experimental data reported in EP4834902A1, “THIAZOLYL-PYRAZOLO[1,5-A]PYRIDINE COMPOUND AND USE THEREOF AS MYLK4 INHIBITOR” (dated 2026).

Experiments:
Normotensive rabbits = assay: Intraocular pressure lowering effect by single instillation (normotensive rabbits); details: 50 µL single instillation, n=4
Protocol: Compounds 129, 6, 53, and 130, as well as compound 74 in its free form, were formulated at various concentrations with a solubilizing agent, isotonic agent, preservative, and pH adjuster in purified water to prepare eye drops (test compound solutions). In addition, a solution prepared in the same manner, but without the compound, was used as a blank.
Normotensive rabbits (Kbl:NZW, male, 11 to 12 weeks old) were used for the experiment. 50 µL of the blank was instilled to the left eye, and 50 µL of the test compound solution was instilled to the right eye. The same test compound solution was instilled in the same animal at increasing concentrations, and each instillation was performed at intervals of one week.
(§1) 0.4% benoxyl ophthalmic solution (Santen Pharmaceutical Co., Ltd.) was instilled to achieve topical anesthesia, and then the intraocular pressure was measured using a pneumatic applanation tonometer (Model 30 Classic, Reichert, Inc.). Intraocular pressure measurements were performed before administration (0 hours), and 0.5, 1, 2, 4, 8, and 24 hours after administration of the blank or the test compound solution.
Each IOP was an average value of three measurements, and the change in intraocular pressure (ΔIOP) was calculated as the difference between the IOP at each time point and the IOP at 0 h (before instillation) for each individual.

[1] = tested on: Cynomolgus normotensive monkeys; assay: Intraocular pressure lowering effect by single instillation (normotensive monkeys); details: 30 µL single instillation, n=2
Protocol: The hydrochloride of compound 129 was added to purified water together with a solubilizing agent, an isotonic agent, a preservative, and a pH adjuster at final concentrations of 0.05 mg/mL and 4 mg/mL to prepare eye drops (test compound solutions). In addition, a solution prepared in the same manner, but without the compound, was used as a blank.
Cynomolgus normotensive monkeys (male, 7 years old) were used for the experiment. A 30 µL aliquot of the blank was instilled to the left eye, and a 30 µL aliquot of the test compound solution was instilled to the right eye. Test compound solutions at different concentrations were administered to the same animal at one-week intervals.
as §1
Each IOP was calculated as an average value of three measurements, and the change in intraocular pressure (ΔIOP) was calculated as the difference between the IOP at each time point and the IOP at 0 h (before administration).

[2] = 0.05 mg/mL eye drop, 0h (before instillation)
[3] = 0.15 mg/mL eye drop, 0h (before instillation)
[4] = 1 mg/mL eye drop, 0h (before instillation)
[5] = 4 mg/mL eye drop, 0h (before instillation)

Structure (SMILES)	Average ΔIOP (Normotensive rabbits; [2]) [mmHg]	Average ΔIOP (Normotensive rabbits; 0.05 mg/mL eye drop, 0.5h) [mmHg]	Average ΔIOP (Normotensive rabbits; 0.05 mg/mL eye drop, 1h) [mmHg]	Average ΔIOP (Normotensive rabbits; 0.05 mg/mL eye drop, 2h) [mmHg]	Average ΔIOP (Normotensive rabbits; 0.05 mg/mL eye drop, 4h) [mmHg]	Average ΔIOP (Normotensive rabbits; 0.05 mg/mL eye drop, 8h) [mmHg]	Average ΔIOP (Normotensive rabbits; 0.05 mg/mL eye drop, 24h) [mmHg]	Average ΔIOP (Normotensive rabbits; [3]) [mmHg]	Average ΔIOP (Normotensive rabbits; 0.15 mg/mL eye drop, 0.5h) [mmHg]	Average ΔIOP (Normotensive rabbits; 0.15 mg/mL eye drop, 1h) [mmHg]	Average ΔIOP (Normotensive rabbits; 0.15 mg/mL eye drop, 2h) [mmHg]	Average ΔIOP (Normotensive rabbits; 0.15 mg/mL eye drop, 4h) [mmHg]	Average ΔIOP (Normotensive rabbits; 0.15 mg/mL eye drop, 8h) [mmHg]	Average ΔIOP (Normotensive rabbits; 0.15 mg/mL eye drop, 24h) [mmHg]	Average ΔIOP (Normotensive rabbits; [4]) [mmHg]	Average ΔIOP (Normotensive rabbits; 1 mg/mL eye drop, 0.5h) [mmHg]	Average ΔIOP (Normotensive rabbits; 1 mg/mL eye drop, 1h) [mmHg]	Average ΔIOP (Normotensive rabbits; 1 mg/mL eye drop, 2h) [mmHg]	Average ΔIOP (Normotensive rabbits; 1 mg/mL eye drop, 4h) [mmHg]	Average ΔIOP (Normotensive rabbits; 1 mg/mL eye drop, 24h) [mmHg]	other results
Cn1cc(Cl)c(-c2csc(-c3cnn4ccccc34)n2)n1	0.0	-2.0	-3.2	-4.1	-2.2	-0.5	-0.9	0.0	-2.1	-3.0	-3.8	-3.2	0.2	-0.5	0.0	-2.0	-3.0	-3.9	-3.8	-0.4	Average ΔIOP (Normotensive rabbits; [5]): 0.0 mmHg; Average ΔIOP (Normotensive rabbits; 4 mg/mL eye drop, 0.5h): -2.1 mmHg; Average ΔIOP (Normotensive rabbits; 4 mg/mL eye drop, 1h): -3.1 mmHg; Average ΔIOP (Normotensive rabbits; 4 mg/mL eye drop, 2h): -4.4 mmHg; Average ΔIOP (Normotensive rabbits; 4 mg/mL eye drop, 4h): -4.0 mmHg; Average ΔIOP (Normotensive rabbits; 4 mg/mL eye drop, 8h): -1.3 mmHg; Average ΔIOP (Normotensive rabbits; 4 mg/mL eye drop, 24h): -0.4 mmHg
CNCc1ccc(-c2csc(-c3cnn4ccccc34)n2)cn1	0.0	0.2	0.3	0.2	0.1	0.6	0.2	0.0	-0.2	-0.1	-0.5	-0.5	0.4	-0.3	0.0	-0.4	-0.8	-2.0	-1.4	-0.5	Average ΔIOP (Normotensive rabbits; 1 mg/mL eye drop, 8h): 0.0 mmHg; Average ΔIOP (Normotensive rabbits; [5]): 0.0 mmHg; Average ΔIOP (Normotensive rabbits; 4 mg/mL eye drop, 0.5h): -0.5 mmHg; Average ΔIOP (Normotensive rabbits; 4 mg/mL eye drop, 1h): -0.7 mmHg; Average ΔIOP (Normotensive rabbits; 4 mg/mL eye drop, 2h): -2.2 mmHg; Average ΔIOP (Normotensive rabbits; 4 mg/mL eye drop, 4h): -1.4 mmHg; Average ΔIOP (Normotensive rabbits; 4 mg/mL eye drop, 8h): 0.6 mmHg; Average ΔIOP (Normotensive rabbits; 4 mg/mL eye drop, 24h): 0.1 mmHg
CC(=O)NCc1ccc(-c2csc(-c3cnn4ccccc34)n2)cn1	0.0	-0.9	-1.8	-2.3	-0.3	1.2	0.1	0.0	-1.4	-2.0	-3.3	-2.0	0.0	-0.9	0.0	-1.2	-0.7	-2.3	-2.3	-0.2	Average ΔIOP ([1]; 0.05 mg/mL eye drop, 0h (before administration)): 0.0 mmHg; Average ΔIOP ([1]; 0.05 mg/mL eye drop, 0.5h): -0.8 mmHg; Average ΔIOP ([1]; 0.05 mg/mL eye drop, 2h): -2.5 mmHg; Average ΔIOP ([1]; 0.05 mg/mL eye drop, 8h): -0.7 mmHg; Average ΔIOP ([1]; 0.05 mg/mL eye drop, 24h): -0.2 mmHg; Average ΔIOP ([1]; 4 mg/mL eye drop, 0h (before administration)): 0.0 mmHg; Average ΔIOP ([1]; 4 mg/mL eye drop, 0.5h): -0.7 mmHg; Average ΔIOP ([1]; 4 mg/mL eye drop, 1h): -2.1 mmHg; Average ΔIOP ([1]; 4 mg/mL eye drop, 2h): -3.7 mmHg; Average ΔIOP ([1]; 4 mg/mL eye drop, 4h): -2.2 mmHg; Average ΔIOP ([1]; 4 mg/mL eye drop, 8h): -1.7 mmHg; Average ΔIOP ([1]; 4 mg/mL eye drop, 24h): -0.6 mmHg; Average ΔIOP (Normotensive rabbits; 1 mg/mL eye drop, 8h): 1.4 mmHg; Average ΔIOP (Normotensive rabbits; [5]): 0.0 mmHg; Average ΔIOP (Normotensive rabbits; 4 mg/mL eye drop, 0.5h): -2.6 mmHg; Average ΔIOP (Normotensive rabbits; 4 mg/mL eye drop, 1h): -2.0 mmHg; Average ΔIOP (Normotensive rabbits; 4 mg/mL eye drop, 2h): -4.3 mmHg; Average ΔIOP (Normotensive rabbits; 4 mg/mL eye drop, 4h): -2.9 mmHg; Average ΔIOP (Normotensive rabbits; 4 mg/mL eye drop, 8h): -0.4 mmHg; Average ΔIOP (Normotensive rabbits; 4 mg/mL eye drop, 24h): -0.4 mmHg
CNCc1ccc(-c2csc(-c3cnn4ccccc34)n2)cc1.Cl	0.0	0.1	0.1	0.1	-0.1	0.2		0.0	-0.3	-0.3	-0.4	-0.4	0.4	0.1	0.0	-0.9	-0.5	-1.4			Average ΔIOP (Normotensive rabbits; 1 mg/mL eye drop, 8h): -0.3 mmHg
O=C([O-])c1cccc(-c2csc(-c3cnn4ccccc34)n2)c1.[Na+]	0.0	0.0	0.1	-0.3	-0.3	0.3	0.1	0.0	0.1			-0.9			0.0		-0.4		-1.7	-0.4	Average ΔIOP (Normotensive rabbits; 1 mg/mL eye drop, 8h): 0.3 mmHg; Average ΔIOP (Normotensive rabbits; [5]): 0.0 mmHg; Average ΔIOP (Normotensive rabbits; 4 mg/mL eye drop, 4h): -1.7 mmHg
